{
  "source": "paper PMC4269550",
  "about": "“Lead Optimization of a Pyrazole Sulfonamide Series of Trypanosoma bruceiN-Myristoyltransferase Inhibitors: Identification and Evaluation of CNS Penetrant Compounds as Potential Treatments for Stage 2 Human African Trypanosomiasis” (Journal of Medicinal Chemistry, 2014)",
  "key": {"[1]": {"assay": "Maximum tolerated dose in mice", "settings": "mouse"}, "Mouse brain penetration": {"assay": "Mouse brain penetration", "format": "in vivo", "settings": "female, NMRI, brain and blood, intravenous, 2 mg free base/kg, read-out: B:B (brain:blood ratio in mouse)"}, "T. b. brucei S427": {"tested_on": "T. b. brucei S427", "assay": "Stage 1 HAT mouse efficacy model, T. b. brucei S427", "format": "in vivo", "settings": "T. b. brucei S427, 50 mg/kg b.i.d. po for 4 days"}},
  "data": [
    {"compound": "Cc1c(NS(=O)(=O)c2c(Cl)cc(-c3ccnc(N4CCNCC4)c3)cc2Cl)c(CC(C)C)nn1C", "note": "[compound 6]", "values": [
      {"measurement": "stage 1 HAT therapeutic window", "setting": "[1]", "result": "2–3 fold"}
    ]},
    {"compound": "Cc1nn(C)c(C)c1NS(=O)(=O)c1ccc(CCCC2CCN(C)CC2)cc1", "note": "[compound 17]", "values": [
      {"measurement": "Kp", "setting": "Mouse brain penetration", "result": "≤ 0.1"}
    ]},
    {"compound": "Cc1nn(C)c(C)c1N(C(F)F)S(=O)(=O)c1c(Cl)cc(CCCCC2CCN(C)CC2)cc1Cl", "note": "[compound 46]", "values": [
      {"measurement": "Activity in stage 1 mouse model", "setting": "T. b. brucei S427", "result": "fully curative"}
    ]}
  ]
}
